The values below are quoted from earlier work in patent US20150250887A1, “METHOD OF PREPARING RESIN TINCTURES” (JALEVA PHARMACEUTICALS, LLC, priority 2012, published 2015).

Usually log D stands for the decadic logarithm of the distribution of all forms, ionised or not, between an organic phase and buffer at a given pH.

Some compounds may have been tested in ways that are not shown here.

For the data set the following is noted: pH about 7.4.

As for `CCC(=O)N(c1ccccc1)C1CCN(CCc2ccccc2)CC1`, the log D was 3.97.
